## scFv variants of Ab-95 (light chain) against a SARS-CoV-2 spike peptide

Binding partner: SARS-CoV-2 spike HR2 peptide, sequence PDVDLGDISGINAS.

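AAYL52 was designed without a model: most single CDR substitutions and a random sample of double and triple ones. The scFvs were displayed on barcoded MATa yeast, the peptide on MATalpha yeast. Binding brings cells together so that they mate, and sequencing counts the barcode pairs among the diploids. Read counts were normalised to the haploid input and turned into Kd by a linear fit to BCL2-family pairs of known affinity, for each replicate. Each pool was mated in three replicate cultures.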

Parent: Ab-95, a human scFv built as VH, the linker GGGGSGGGGSGGGGS, VL. Only the CDRs of the light chain vary.
VH: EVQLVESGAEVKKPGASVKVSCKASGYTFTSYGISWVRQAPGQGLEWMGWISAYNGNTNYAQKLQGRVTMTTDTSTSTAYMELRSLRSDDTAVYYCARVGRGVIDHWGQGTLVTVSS
VL: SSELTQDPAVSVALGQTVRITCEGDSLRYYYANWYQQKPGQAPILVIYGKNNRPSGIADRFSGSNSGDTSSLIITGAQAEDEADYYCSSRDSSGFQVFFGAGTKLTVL

The parent's light chain CDRs are EGDSLRYYYAN, GKNNRPS, SSRDSSGFQVF; each variant's own CDRs replace them letter for letter.
The read-out is the apparent dissociation constant on a log10 scale (nM): the lower, the stronger.
The mean shown is taken over the replicates in which the pair was detected.
An entry "nd" has no value in the source: the pair was not observed among the diploids in any replicate. This suggests poor binding but is not conclusive.
As a blank, each scFv also met three strains without target: over library AAYL52, 28% of these pairings were detected, typically at 3.91 and seldom below 2.90. Also given: how often the same scFv was detected with the empty control strains.

| CDR-L1 | CDR-L2 | CDR-L3 | mean, log10 nM | seen in | control signals |
|---|---|---|---|---|---|
| EGKSLRYYYAN | GKNNRPS | SSRDSSGAQFF | 4.34 | 2 of 3 | 4 of 9 |
| EGYSLRYYYAN | GKNNRPS | SSNDSSYFQVF | 2.34 | 3 of 3 | 4 of 9 |
| EGYSLRYYYAN | GKNNIPQ | SSRDSSGFQVF | 3.33 | 1 of 3 | 1 of 9 |
| EGDRTRYYYAN | GKNNRPS | SSRDSSEFQVF | 3.58 | 1 of 3 | 5 of 9 |
| EPDSLRYYYAN | GKNNRPS | SSRDSSGFGRF | 4.37 | 2 of 3 | 6 of 9 |
| EGDSEREYYHN | GKNNRPS | SSRDSSGFQVF | nd | 0 of 3 | 0 of 9 |
| EKDSLRYFYHN | GKNNRPS | SSRDSSGFQVF | 3.17 | 1 of 3 | 0 of 9 |
| EQNSLRYYYAN | GKNNRPS | SSRDCSGFQVF | 3.25 | 1 of 3 | 4 of 9 |
| TGDSLRYYYAN | GKNMRPS | SSRDSAGFQVF | 2.47 | 3 of 3 | 3 of 9 |
| EGDSLRFYYAN | GKNNRPS | ISRDSSGFQSF | 2.79 | 3 of 3 | 1 of 9 |
| CGGSLRYYYAN | GKNNRPS | SSRDTSGFQVF | 3.17 | 3 of 3 | 2 of 9 |
| EGDALTYYYAN | GKNNRPV | SSRDSSGFQVF | 2.80 | 3 of 3 | 4 of 9 |
| EGDSLRDYFAN | GKNNRPS | SSRDSWGFQVF | 2.60 | 3 of 3 | 3 of 9 |
| EGDSLRYYYAN | GKNVRPS | SSRDSSHFQVF | 2.16 | 3 of 3 | 4 of 9 |
| LCDSLRYYYAN | GKNNRLS | SSRDSSGFQVF | 4.00 | 2 of 3 | 3 of 9 |
| EGDSLRCYYAN | GKNNRPS | LSRSSSGFQVF | nd | 0 of 3 | 3 of 9 |
| EGDSLRSYYAN | GKNNRPS | SSRDSSGFQWF | 2.12 | 3 of 3 | 4 of 9 |
| EGFSLRYYYQN | GKNNRPS | SSRDSSPFQVF | 3.16 | 1 of 3 | 5 of 9 |
| EGDSLRYYYKN | GKNNRPS | SSRDWTGFQVF | 5.01 | 3 of 3 | 2 of 9 |
| EGDSLRYYYAN | GKNNRPS | MSADSSEFQVF | 1.98 | 3 of 3 | 1 of 9 |
| EGDSLRYYYAN | GKNNRNS | SSRDSSGDQVA | 2.27 | 3 of 3 | 1 of 9 |
| EGHSGRYYYAN | GKNNRQS | SSRDSSGFQVF | 3.03 | 3 of 3 | 5 of 9 |
| EGDSLGYYYAP | GKNNRPS | SSRDRSGFQVF | 2.33 | 3 of 3 | 1 of 9 |
| EGDSLRYEYAN | GCNLRPS | SSRDSSGFQVF | 3.81 | 3 of 3 | 4 of 9 |
| EGDSLRYYYAN | GKNNRPS | SSRNISGFQVP | 2.26 | 3 of 3 | 3 of 9 |
| EGDSKRYYYAN | GKNNRPS | SSRMFSGFQVF | 4.06 | 2 of 3 | 2 of 9 |
| EGDSLRYYYWN | GKNNRPS | SFRDSSIFQVF | 4.01 | 2 of 3 | 1 of 9 |
| EGDSLRYYYAN | GKNNRPS | SYRDWSGFQVF | 2.27 | 3 of 3 | 5 of 9 |
| ENDSTRYYYAN | GKNNRPS | SSRDSSGFQDF | 4.41 | 2 of 3 | 2 of 9 |
| EGDSLRYYYAN | MKNNRPS | SKRRSSGFQVF | nd | 0 of 3 | 0 of 9 |
| EGDPLRYYYAN | GKNNRRW | SSRDSSGFQVF | 4.23 | 3 of 3 | 1 of 9 |
| EGDSLLYYYAN | GKNNRPT | SSRDSSGFQVF | 2.13 | 3 of 3 | 3 of 9 |
| EGDHLRYYYAN | DKNNRPS | SQRDSSGFQVF | 3.34 | 3 of 3 | 2 of 9 |
| EGDSLRHYYHN | GKNNRPS | SSRDSSGFQQF | 4.43 | 2 of 3 | 1 of 9 |
| EGDSLRYYYAK | DKNNRPS | SSRDSSGFQVF | 4.54 | 2 of 3 | 2 of 9 |
| EGDSLRYYYAN | GKNMRPS | HSRDSSGFTVF | nd | 0 of 3 | 2 of 9 |
| EGDSLRYYYAN | GKNNRPS | SSSDSSGGYVF | 3.06 | 3 of 3 | 4 of 9 |
| EGDSLWYYYAN | GKNNRPW | SSIDSSGFQVF | 3.49 | 2 of 3 | 1 of 9 |
| EGDSLRQYHAC | GKNNRPS | SSRDSSGFQVF | nd | 0 of 3 | 5 of 9 |
| EGDSLRYYYAN | GKNNRPK | SSRDVSGFQVI | 2.26 | 3 of 3 | 1 of 9 |
| EGDSQRYYYCN | GSNNRPS | SSRDSSGFQVF | 1.45 | 3 of 3 | 4 of 9 |
| EGDSLRYKYLN | GKNNRPS | SSRDSSGFQDF | 4.21 | 1 of 3 | 2 of 9 |
| EGDSLRYYYAN | GRNNQPS | SSRDSSGVQVF | 4.12 | 2 of 3 | 6 of 9 |
| NGDSLLYYYAN | GYNNRPS | SSRDSSGFQVF | 2.10 | 3 of 3 | 0 of 9 |
| EGDSLYYYYAN | GKNNRPS | DSRDSSGFQVF | 4.03 | 2 of 3 | 3 of 9 |
| EGDSLDYYYAN | GKNNRPW | SSRDSMGFQVF | 4.48 | 1 of 3 | 1 of 9 |
| EGWSLRYYYAN | GKNNRPS | ESRDSSGFQVF | 2.34 | 3 of 3 | 3 of 9 |
| EGDSLRYYYAN | GKNLRPS | SWRDSSGFVVF | 2.41 | 3 of 3 | 2 of 9 |
| EGDSLRYYYAN | GKNNRPS | SQRKSSNFQVF | 3.65 | 3 of 3 | 3 of 9 |
| EGDCLRYYYAN | GKNNRPS | SSRDLSGFQVI | 4.78 | 1 of 3 | 2 of 9 |
| EGDTLIYYYAN | GKNNRPS | SSRDSSGMQVF | 3.39 | 1 of 3 | 1 of 9 |
| EGDSLRYPYAN | GKNNRPS | LSRDSSGFQRF | 2.32 | 3 of 3 | 2 of 9 |
| EGDSLRYYYAN | NKNNRPS | SSRDSQGFQKF | nd | 0 of 3 | 0 of 9 |
| EGDSLRYYYAN | GKNWRPS | SSRDCSQFQVF | nd | 0 of 3 | 2 of 9 |
| EGKSLRYYYAM | GKNNRPS | SSRDKSGFQVF | nd | 0 of 3 | 1 of 9 |
| EGDSLRYYYAN | GKNNRPS | SSRDCMGFVVF | 2.96 | 2 of 3 | 0 of 9 |
| EGDSLRYYYWN | GCNNRES | SSRDSSGFQVF | nd | 0 of 3 | 2 of 9 |
| EGDSLRYKYAN | GKNNRPS | ASRDSSGFQVQ | 2.19 | 3 of 3 | 3 of 9 |
| EGDSLGYYYAN | GKNTVPS | SSRDSSGFQVF | 3.36 | 3 of 3 | 2 of 9 |

For reference, 5 entries of the list once more:

| CDR-L1 | CDR-L2 | CDR-L3 | mean, log10 nM | seen in | control signals |
|---|---|---|---|---|---|
| EKDSLRYFYHN | GKNNRPS | SSRDSSGFQVF | 3.17 | 1 of 3 | 0 of 9 |
| EGDSLRQYHAC | GKNNRPS | SSRDSSGFQVF | nd | 0 of 3 | 5 of 9 |
| EGDHLRYYYAN | DKNNRPS | SQRDSSGFQVF | 3.34 | 3 of 3 | 2 of 9 |
| EQNSLRYYYAN | GKNNRPS | SSRDCSGFQVF | 3.25 | 1 of 3 | 4 of 9 |
| EGDSKRYYYAN | GKNNRPS | SSRMFSGFQVF | 4.06 | 2 of 3 | 2 of 9 |

In this assay the parent's reference entry averaged 2.31; its copy inside this library read 2.25.

Data: MIT Lincoln Laboratory AlphaSeq set, Engelhart et al. 2022, doi:10.1038/s41597-022-01779-4, as distributed in FLAb.